The entries are a selection whose mix differs from that of the whole data set. Activity calls are given as the source filed them.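 How the source made its calls: active means fluorescent GTP binding to Rab7 beads changed by at least 20 points from the 100% baseline, either direction, mostly lower; inconclusive means compound itself probably fluorescent, or too few beads counted; inactive means the rest.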
The molecules below were run on Rab7 GTPase wild type (dog), Bodipy-FL-GTP binding (assay: modulators of GTP binding to Rab7, primary screen, biochemical, wildtype, multiplex bead flow cytometry (AID 758;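 further: median green fluorescence of bound Bodipy-FL-GTP per Rab7 bead population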)). Conditions: GST-Rab7 beads, fluorescent GTP binding, at 10 µM, actives lie on both sides, untreated = 100%, excess cold GTP = 0%.

Row | Compound | GTP binding activity (percent of control)
1 | O=P1(Nc2ncccn2)COc2ccccc2OC1 | inactive: 99%
2 | O=P1(Nc2ccc(Br)cn2)COc2ccccc2OC1 | inactive: 94%
3 | Cc1ccc(OCC(=O)OC2CN3CCC2CC3)cc1 (stereo not given) | inactive: 102%
4 | Cc1nn(-c2ccccc2)c2c1P(=O)(N1CCOCC1)N(C)C(c1ccccc1)=N2 (stereo not given) | inactive: 100%
5 | CC1CCC(C(C)C)C(OP(=O)(Nc2ccccn2)c2ccccc2)C1 (stereo not given) | inactive: 93%
6 | CN(C)C1(CNC(=O)c2ccc(S(C)(=O)=O)cc2)CCCCC1 | inactive: 101%
7 | CC(C)/C=N\N=C(\N)N[N+](=O)[O-] | inactive: 97%
8 | O=P1(Nc2ccccn2)COc2ccccc2OC1 | inactive: 100%
9 | Clc1n[nH]nc1-c1nn[nH][15n]1 | inactive: 101%
10 | Cc1ccc(NCCc2c([N+](=O)[O-])cc([N+](=O)[O-])cc2[N+](=O)[O-])cc1 | inactive: 102%
11 | COc1cc(C2NCCC3(OCCO3)C2(C)C)cc(OC)c1OC (stereo not given) | inactive: 96%
12 | CCOP(=O)(Nc1cccc2ccccc12)OCC | inactive: 101%
13 | COc1cc(C(=O)NCC2(N3CCOCC3)CCCCC2)cc(Cl)c1OC(C)C | inactive: 100%
14 | Cc1cccc(OCC(=O)OC2CN3CCC2CC3)c1 (stereo not given) | inactive: 103%
15 | CCOP1(=S)c2c(C)nn(CCC#N)c2N=C(c2ccc(F)cc2)N1C (stereo not given) | inactive: 96%
16 | O=[N+]([O-])c1ccc2c(c1)nnn2O | inactive: 102%
17 | CCOP1(=S)c2c(C)nn(CCC#N)c2N=C(c2ccccc2F)N1C (stereo not given) | inactive: 95%
18 | O=P(Nc1nccs1)(c1ccccc1)c1nc2ccccc2s1 (stereo not given) | inactive: 98%
19 | O=P(Nc1nccs1)(Oc1ccccc1)Oc1ccccc1 | inactive: 94%
20 | ClCCSc1nnc(-c2cccnc2)o1 | inactive: 103%
21 | CCN(CC)C(=S)SC(NC=O)C(Cl)(Cl)Cl (stereo not given) | inactive: 94%
22 | CC(C)NC(=O)NP(=O)(Oc1ccccc1)Oc1ccccc1 | inactive: 102%
23 | O=[N+]([O-])c1cc([N+](=O)[O-])c(-c2ccn[nH]2)s1 | inactive: 104%
24 | Cc1ccc2nc3c(c(C)c2c1)CC(C(Cl)Cl)S3 (stereo not given) | inactive: 100%
25 | COc1ccc(N/C(=N/P(=O)(N2CCOCC2)N2CCOCC2)N2CCOCC2)cc1 | inactive: 101%

Row | Compound | GTP binding activity (percent of control)
26 | Cc1c2c(nc3ccccc13)SC(C(Cl)Cl)C2 (stereo not given) | inactive: 99%
27 | Cc1cc(=O)[nH]c(N[N+](=O)[O-])n1 | inactive: 103%
28 | COc1ccc2nc(NP(=O)(c3ccccc3)c3ccccc3)sc2c1 | inactive: 103%
29 | CCC(C)N(CC(C)C)C(=S)SC(NC(C)=O)C(Cl)(Cl)Cl (stereo not given) | inactive: 99%
30 | COP1(=S)c2c(C)nn(CCC#N)c2N=C(c2ccc(F)cc2)N1C (stereo not given) | inactive: 96%
31 | O=C(COc1ccccc1)OC1CN2CCC1CC2 (stereo not given) | inactive: 105%
32 | Cc1cc(SC(NC=O)C(Cl)(Cl)Cl)ncn1 (stereo not given) | inactive: 107%
33 | O=P(Nc1ccccn1)(c1cccc2ccccc12)c1cccc2ccccc12 | inactive: 96%
34 | Cc1cc(SC(NC(=O)c2ccccc2)C(Cl)(Cl)Cl)nc(C(C)C)n1 (stereo not given) | inactive: 102%
35 | O=[N+]([O-])c1ncn(CCn2ncnc2[N+](=O)[O-])n1 | inactive: 95%
36 | CCN(/C(=N/P(=O)(N1CCOCC1)N1CCOCC1)N1CCOCC1)c1ccc(OC)cc1 | inactive: 99%
37 | CC1CCN(C(=O)Oc2c(Cl)cc(Cl)c3cccnc23)CC1 | inactive: 100%
38 | CN(C)C(=O)OCCc1n(C)cc[n+]1C | inactive: 103%
39 | COc1ccc(C2=NCC(CBr)S2)cc1 (stereo not given) | inactive: 102%
40 | Cc1ccc(NP(=O)(Oc2ccccc2)Oc2ccccc2)nc1 | inactive: 103%
41 | O=[N+]([O-])c1cc([N+](=O)[O-])c(CCNc2ccccc2)c([N+](=O)[O-])c1 | inactive: 102%
42 | CCc1nc2c(n1)c1c(non1O)c1c2no[n+]1[O-] | inactive: 96%
43 | CC(=O)N1C2C3N(C(C)=O)C1C1N(C(C)=O)C(C(N1C(C)=O)N3C(C)=O)N2C(C)=O | inactive: 94%
44 | O=[N+]([O-])c1cccc2n[nH]nc12 | inactive: 101%
45 | Oc1ccccc1CNc1ccccn1 | inactive: 100%
46 | Cc1c2non([O-])c-2c(C)[n+](=O)[n+]1[O-] | inactive: 100%
47 | O=C(NC(Sc1ccncn1)C(Cl)(Cl)Cl)c1ccccc1 (stereo not given) | inactive: 98%
48 | CC(C)CC(=O)NC(Sc1ccc(Cl)cc1)C(Cl)(Cl)Cl (stereo not given) | inactive: 103%
49 | Cc1ccc(N/C(=N/P(=O)(N2CCOCC2)N2CCOCC2)N2CCOCC2)cc1 | inactive: 94%
50 | NC(=O)c1cc([N+](=O)[O-])cc([N+](=O)[O-])c1N | inactive: 97%

Row | Compound | GTP binding activity (percent of control)
51 | Clc1ccc(Cl)c(NC2=NCC(CBr)S2)c1 (stereo not given) | inactive: 96%
52 | CN1CCCC(OC(=O)C(c2ccccc2)c2ccccc2)C1 (stereo not given) | inactive: 102%
53 | CCN(N=Nc1nonc1N)c1nonc1N | inactive: 95%
54 | CCOP(=O)(Nc1ccccc1)OCC | inactive: 105%
55 | Cc1cc(SC(NC(=O)c2ccc(F)cc2)C(Cl)(Cl)Cl)ncn1 (stereo not given) | inactive: 98%
56 | CCC(=O)N1C2C3N(C(=O)CC)C1C1N(C(=O)CC)C(C(N1C(=O)CC)N3C(=O)CC)N2C(=O)CC | inactive: 98%
57 | COC(=O)c1cc2c(s1)N=C(c1ccccc1)N(C)P2(=O)N1CCOCC1 (stereo not given) | inactive: 94%
58 | CC(=O)NC(SC(=S)N(CC(C)C)CC(C)C)C(Cl)(Cl)Cl (stereo not given) | inactive: 97%
59 | Cc1ccc(OP(=O)(Nc2ccccn2)Oc2ccc(C)cc2)cc1 | inactive: 92%
60 | O=c1c2cc([N+](=O)[O-])ccc2[nH]c2c([N+](=O)[O-])cc([N+](=O)[O-])cc12 | inactive: 98%
61 | c1ccc(-c2nn[nH]n2)c(-c2nn[nH]n2)c1 | inactive: 95%
62 | CCOC(=O)NC(Sc1ccccc1)C(Cl)(Cl)Cl (stereo not given) | inactive: 99%
63 | O=C(NC1CCS(=O)(=O)C1)NP(=S)(Oc1ccccc1)Oc1ccccc1 (stereo not given) | inactive: 96%
64 | CCNC(=S)/N=C(\N)N[N+](=O)[O-] | inactive: 97%
65 | CC(=O)Nc1ccc(Oc2c([N+](=O)[O-])cc([N+](=O)[O-])cc2[N+](=O)[O-])cc1 | inactive: 91%
66 | O=P1(Nc2nc3ccc(Cl)cc3s2)COc2ccccc2O1 (stereo not given) | inactive: 96%
67 | CCOc1ccc(C2=NCC(CBr)S2)cc1 (stereo not given) | inactive: 95%
68 | CC(C)(C)C(=O)NC(Sc1ccccc1)C(Cl)(Cl)Cl (stereo not given) | inactive: 96%
69 | O=P(Nc1nccs1)(c1ccccc1)c1ccccc1 | inactive: 99%
70 | CC(C)C(=O)NC(Sc1ccccc1)C(Cl)(Cl)Cl (stereo not given) | inactive: 104%
71 | c1nnnn1CCn1cnnn1 | inactive: 101%
72 | CC(=O)NC(SC(=S)N(C)C)C(Cl)(Cl)Cl (stereo not given) | inactive: 99%
73 | O=C(OC1CN2CCC1CC2)c1cccc(Cl)c1 (stereo not given) | inactive: 104%
74 | C(Cc1nn[nH]n1)Cc1nn[nH]n1 | inactive: 100%
75 | O=P(Nc1ccccn1)(c1ccc(Br)cc1)c1ccc(Br)cc1 | inactive: 96%

Reference: PubChem BioAssay AID758 (NMMLSC, 2007)
